Data on one molecule can be found in BindingDB's records for doi:10.1016/j.bmc.2007.06.041 (Seoul National University, 2007).

The chains behind the UniProt entries cited, without tags or fusion partners.
UniProt O35433, whole entry: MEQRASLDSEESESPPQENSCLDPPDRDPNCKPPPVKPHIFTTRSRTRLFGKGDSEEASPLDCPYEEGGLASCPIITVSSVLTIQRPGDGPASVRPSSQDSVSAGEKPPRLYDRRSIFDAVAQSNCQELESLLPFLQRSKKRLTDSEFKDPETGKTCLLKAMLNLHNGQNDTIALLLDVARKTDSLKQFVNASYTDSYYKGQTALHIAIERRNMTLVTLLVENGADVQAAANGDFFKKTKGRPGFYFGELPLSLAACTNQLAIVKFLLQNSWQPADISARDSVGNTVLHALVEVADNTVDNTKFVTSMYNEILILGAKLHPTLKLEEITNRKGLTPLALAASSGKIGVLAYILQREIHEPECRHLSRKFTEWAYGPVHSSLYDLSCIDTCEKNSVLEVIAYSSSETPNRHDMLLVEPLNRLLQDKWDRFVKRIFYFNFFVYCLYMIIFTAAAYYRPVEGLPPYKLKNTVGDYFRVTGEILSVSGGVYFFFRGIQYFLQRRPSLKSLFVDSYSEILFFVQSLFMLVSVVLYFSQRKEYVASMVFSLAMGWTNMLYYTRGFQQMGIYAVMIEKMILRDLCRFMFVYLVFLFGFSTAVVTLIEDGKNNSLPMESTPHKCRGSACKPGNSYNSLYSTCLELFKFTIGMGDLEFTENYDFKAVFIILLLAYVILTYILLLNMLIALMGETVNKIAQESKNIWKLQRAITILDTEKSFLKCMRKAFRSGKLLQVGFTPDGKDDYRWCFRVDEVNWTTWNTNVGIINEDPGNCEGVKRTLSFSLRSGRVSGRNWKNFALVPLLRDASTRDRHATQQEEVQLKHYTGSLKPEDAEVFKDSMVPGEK

The assay deals with Transient receptor potential cation channel subfamily V member 1 (Rattus norvegicus, UniProt O35433). In words: Competition Binding Assay and Inhibition of Ca2+ Uptake Assay. Conditions: pH 7.4; 37 °C. The method, then:
Binding assay mixtures were set up and contained [3H] RTX, various concentrations of competing ligands, and rVR1-transfected CHO cells. Nonspecific binding was determined in the presence of 100 nM nonradioactive RTX. After the binding reaction, membrane-bound RTX was separated from the free by centrifugation, and the radioactivity was determined by scintillation counting. Equilibrium binding parameters (Ki, Bmax, and cooperativity) were determined by fitting the Hill equation to the measured values with the aid of the program Origin 6.0.

Each structure is given as a SMILES string.

Turning to `CC(C)(C)c1ccc(CNC(=S)NCc2ccc(NS(C)(=O)=O)cc2)cc1` [3-[(4-tert-butylphenyl)methyl]-1-[(4-methanesulfonamidophenyl)methyl]thiourea], the Ki (in general, the equilibrium dissociation constant of an inhibitor or competing ligand from its target) came out at 54 nM.
